In the assay the test system is CAA amyloid deposits and neuritic plaques. As to the kind of experiment: In vivo live imaging through closed cranial window in aged Tg2576 mice. The note with it: 2 μM superfused through closed cranial window for 5 min.

As for `O=c1ccc2nc3ccc(O)cc3oc-2c1` [Resorufin, 7-hydroxy-3H-phenoxazin-3-one], the “Live fluorescent labeling of amyloid deposits, topical application” value is “intense fluorescent labeling within the walls of the leptomeningeal arteries”.

The values above are taken from publication PMC3259047 (Molecular Neurodegeneration, 2011).
